Results as given in PubChem BioAssay (NCI).
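Dose response: 5 concentrations. Exposure: 48 h. Format: 96-well plates. Endpoint: linear interpolation; highest concentration if not reached. Here, GI50 denotes the concentration required for 50% inhibition of growth.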

Columns and labels:
Test in all cases: growth of human tumour cells (NCI), 48 h; in the data active means GI50 below about 0.43 µM; inactive means the rest
EKVX NSCLC = tested on: EKVX NSCLC
SNB-75 CNS = tested on: SNB-75 CNS
SK-MEL-28 melanoma = tested on: SK-MEL-28 melanoma
NCI-H23 lung = tested on: NCI-H23 lung
XF 498 CNS = tested on: XF 498 CNS
OVCAR-3 ovarian = tested on: OVCAR-3 ovarian
OVCAR-8 ovarian = tested on: OVCAR-8 ovarian
NCI-H460 lung = tested on: NCI-H460 lung
SK-MEL-5 melanoma = tested on: SK-MEL-5 melanoma
HCC-2998 colon = tested on: HCC-2998 colon
M19-MEL melanoma = tested on: M19-MEL melanoma
HOP-18 NSCLC = tested on: HOP-18 NSCLC
UO-31 renal = tested on: UO-31 renal
A549 NSCLC = tested on: A549 NSCLC
OVCAR-5 ovarian = tested on: OVCAR-5 ovarian
HCT-116 colon = tested on: HCT-116 colon
DLD-1 colon = tested on: DLD-1 colon
SF-268 CNS = tested on: SF-268 CNS
RXF-631 renal = tested on: RXF-631 renal
SK-OV-3 ovarian = tested on: SK-OV-3 ovarian
U251 CNS = tested on: U251 CNS
K-562 leukemia = tested on: K-562 leukemia
HOP-62 NSCLC = tested on: HOP-62 NSCLC
HOP-92 NSCLC = tested on: HOP-92 NSCLC
HL-60(TB) leukemia = tested on: HL-60(TB) leukemia
DMS 114 small cell lung = tested on: DMS 114 small cell lung
KM12 colon = tested on: KM12 colon
SNB-78 CNS = tested on: SNB-78 CNS
DMS 273 small cell lung = tested on: DMS 273 small cell lung
SF-539 CNS = tested on: SF-539 CNS
CAKI-1 renal = tested on: CAKI-1 renal
RPMI-8226 leukemia = tested on: RPMI-8226 leukemia
SN12C renal = tested on: SN12C renal
HT29 colon = tested on: HT29 colon
SR leukemia = tested on: SR leukemia
OVCAR-4 ovarian = tested on: OVCAR-4 ovarian
KM20L2 colon = tested on: KM20L2 colon
CCRF-CEM leukemia = tested on: CCRF-CEM leukemia
TK-10 renal = tested on: TK-10 renal
M14 melanoma = tested on: M14 melanoma
SNB-19 CNS = tested on: SNB-19 CNS
RXF 393 renal = tested on: RXF 393 renal
UACC-257 melanoma = tested on: UACC-257 melanoma
786-0 renal = tested on: 786-0 renal
NCI-H522 lung = tested on: NCI-H522 lung
HCT-15 colon = tested on: HCT-15 colon
LXFL 529 NSCLC = tested on: LXFL 529 NSCLC
A498 renal = tested on: A498 renal
MOLT-4 leukemia = tested on: MOLT-4 leukemia
SW-620 colon = tested on: SW-620 colon
IGROV1 ovarian = tested on: IGROV1 ovarian
UACC-62 melanoma = tested on: UACC-62 melanoma
NCI-H322M lung = tested on: NCI-H322M lung
ACHN renal = tested on: ACHN renal
SF-295 CNS = tested on: SF-295 CNS

Measured: GI50

Cc1ccccc1NC1CC(C)(C)NC(C)(C)C1
inactive: EKVX NSCLC > 100 µM | SNB-75 CNS > 100 µM | SK-MEL-28 melanoma > 100 µM | NCI-H23 lung > 100 µM | XF 498 CNS > 100 µM | OVCAR-3 ovarian > 100 µM | OVCAR-8 ovarian > 100 µM | NCI-H460 lung > 100 µM | SK-MEL-5 melanoma > 100 µM | HCC-2998 colon > 100 µM | M19-MEL melanoma > 100 µM | HOP-18 NSCLC > 100 µM | UO-31 renal 42.3 µM | A549 NSCLC > 100 µM | OVCAR-5 ovarian > 100 µM | HCT-116 colon > 100 µM | DLD-1 colon > 100 µM | SF-268 CNS > 100 µM | RXF-631 renal > 100 µM | SK-OV-3 ovarian > 100 µM | U251 CNS > 100 µM | K-562 leukemia > 100 µM | HOP-62 NSCLC > 100 µM | HOP-92 NSCLC > 100 µM | HL-60(TB) leukemia 88.6 µM | DMS 114 small cell lung > 100 µM | KM12 colon > 100 µM | SNB-78 CNS > 100 µM | DMS 273 small cell lung > 100 µM | SF-539 CNS > 100 µM | CAKI-1 renal > 100 µM | RPMI-8226 leukemia > 100 µM | SN12C renal > 100 µM | HT29 colon > 100 µM | SR leukemia > 100 µM | OVCAR-4 ovarian > 100 µM | KM20L2 colon > 100 µM | CCRF-CEM leukemia > 100 µM | TK-10 renal > 100 µM | M14 melanoma > 100 µM | SNB-19 CNS > 100 µM | RXF 393 renal 64.6 µM | UACC-257 melanoma > 100 µM | 786-0 renal > 100 µM | NCI-H522 lung > 100 µM | HCT-15 colon > 100 µM | LXFL 529 NSCLC > 100 µM | A498 renal > 100 µM | MOLT-4 leukemia > 100 µM | SW-620 colon > 100 µM | IGROV1 ovarian > 100 µM | UACC-62 melanoma > 100 µM | NCI-H322M lung > 100 µM | ACHN renal > 100 µM | SF-295 CNS > 100 µM
